In patent US20180127465A1 (priority 2015, published 2018):

How the values were obtained:
KOR [1] = molecular target: T1, KOR (Homo sapiens, UniProt P41145); experiment: [35S]GTP-γ-S binding assay, agonist mode, hKOR; conditions: Table 6; summary in words from binding and agonist/antagonist modes
KOR [2] = molecular target: T1, KOR; experiment: [35S]GTP-γ-S binding assay, antagonist mode, hKOR; conditions: Table 6, % relative to 10 μM naloxone inhibition of 100 nM U50,488
KOR [3] = molecular target: T1, KOR; experiment: Radioligand binding at KOR ([3H]Nor-BNI), Table 3; conditions: read-out: Ki KOR [3H]Nor-BNI
KOR [4] = molecular target: T1, KOR; experiment: Radioligand competition binding at KOR ([3H]U69,593), Table 6; conditions: read-out: Ki KOR, [3H]U69,593, Kd=5.3 nM, membranes of transfected HNB9.10 cells
DOR [5] = molecular target: T2, DOR (Homo sapiens, UniProt P41143); experiment: Radioligand competition binding at DOR ([3H]DPDPE); conditions: read-out: Ki DOR, Table 6, Kd=0.50 nM, membranes of transfected HNB9.10 cells
MOR [6] = molecular target: MOR (Rattus norvegicus, UniProt P33535); experiment: Radioligand competition binding at MOR ([3H]DAMGO); conditions: read-out: Ki MOR, Table 6, Kd=0.85 nM, membranes of transfected HNB9.10 cells
MOR [7] = conditions: literature value; cited from earlier work
MOR [8] = molecular target: MOR (Homo sapiens, UniProt P35372); experiment: [35S]GTPγS assay, MOR antagonist mode; conditions: FIG. 4A
DOR [9] = molecular target: T2, DOR; experiment: [35S]GTPγS assay, DOR antagonist mode; conditions: FIG. 4A

C[C@@H](NC(=O)[C@@H](N)Cc1ccc(O)cc1)C(=O)NCC(=O)N[C@@H](Cc1ccccc1)C(N)=O
KOR function (KOR [1]): no function | KOR [35S]GTPγS-binding Imax at 10 μM (KOR [2]): <10^h %

CCCC[C@@H](NC(=O)[C@@H](N)Cc1ccc(O)cc1)C(=O)NCC(=O)N[C@@H](Cc1ccc(F)cc1)C(N)=O
KOR function (KOR [1]): weak agonist | Ki (KOR [3]): 210 nM | Ki (KOR [4]): 7.8 nM | Ki (DOR [5]): 0.44 nM | Ki (MOR [6]): 2.3 nM

NC(=O)[C@H](Cc1ccccc1)NC(=O)[C@H](Cc1c[nH]c2ccccc12)NC(=O)[C@@H]1CCCN1C(=O)[C@@H](N)Cc1ccc(O)cc1
preference for MOR over DOR (MOR [7]): 4,000 fold | preference for MOR over KOR (MOR [7]): 15,000 fold

N=C(N)NCCC[C@@H](NC(=O)[C@@H](N)Cc1ccc(O)cc1)C(=O)N[C@@H](Cc1ccccc1)C(=O)N[C@@H](CCCCN)C(N)=O
preference for MOR over DOR (MOR [7]): 11,000 fold | preference for MOR over KOR (MOR [7]): 2,500 fold

Dmt-Pro-Phe-Phe(4-Cl)-Ppp
activity at MOR in words (MOR [8]): do not possess antagonist activity | activity at DOR in words (DOR [9]): do not possess antagonist activity

Marks after values point to notes of the source that are not given here.
